The record followed here is patent publication US20160106439A1, “PNEUMATIC TOURNIQUET” (BIONUMERIK PHARMACEUTICALS, INC., priority 2013, published 2016).

The series is described as follows: Erlotinib Cmax in healthy volunteers. The note with it: human, in vivo, single oral dose of 100 mg, read-out: Cmax converted to molar.

Broadly, the Cmax is the peak of the concentration-time curve. Regarding `C#Cc1cccc(Nc2ncnc3cc(OCCOC)c(OCCOC)cc23)c1` [Erlotinib], the Cmax is approximately 3.23 µM.
